This assay has as its target Tyk2 (Homo sapiens (Human), UniProt P29597). The assay can be described thus: LanthaScreen JAK biochemical assay (Tyk2). Also: ATP at Km 10 µM. Particulars: read-out: Tyk 2 (PKi). For orientation: TR-FRET usually uses a lanthanide donor and a delayed reading to cut background.

Chains of the proteins cited; added tags and fusions are not shown. Lines headed by an entry give the natural chain unless they say otherwise; changes in a name come on top.
UniProt P29597: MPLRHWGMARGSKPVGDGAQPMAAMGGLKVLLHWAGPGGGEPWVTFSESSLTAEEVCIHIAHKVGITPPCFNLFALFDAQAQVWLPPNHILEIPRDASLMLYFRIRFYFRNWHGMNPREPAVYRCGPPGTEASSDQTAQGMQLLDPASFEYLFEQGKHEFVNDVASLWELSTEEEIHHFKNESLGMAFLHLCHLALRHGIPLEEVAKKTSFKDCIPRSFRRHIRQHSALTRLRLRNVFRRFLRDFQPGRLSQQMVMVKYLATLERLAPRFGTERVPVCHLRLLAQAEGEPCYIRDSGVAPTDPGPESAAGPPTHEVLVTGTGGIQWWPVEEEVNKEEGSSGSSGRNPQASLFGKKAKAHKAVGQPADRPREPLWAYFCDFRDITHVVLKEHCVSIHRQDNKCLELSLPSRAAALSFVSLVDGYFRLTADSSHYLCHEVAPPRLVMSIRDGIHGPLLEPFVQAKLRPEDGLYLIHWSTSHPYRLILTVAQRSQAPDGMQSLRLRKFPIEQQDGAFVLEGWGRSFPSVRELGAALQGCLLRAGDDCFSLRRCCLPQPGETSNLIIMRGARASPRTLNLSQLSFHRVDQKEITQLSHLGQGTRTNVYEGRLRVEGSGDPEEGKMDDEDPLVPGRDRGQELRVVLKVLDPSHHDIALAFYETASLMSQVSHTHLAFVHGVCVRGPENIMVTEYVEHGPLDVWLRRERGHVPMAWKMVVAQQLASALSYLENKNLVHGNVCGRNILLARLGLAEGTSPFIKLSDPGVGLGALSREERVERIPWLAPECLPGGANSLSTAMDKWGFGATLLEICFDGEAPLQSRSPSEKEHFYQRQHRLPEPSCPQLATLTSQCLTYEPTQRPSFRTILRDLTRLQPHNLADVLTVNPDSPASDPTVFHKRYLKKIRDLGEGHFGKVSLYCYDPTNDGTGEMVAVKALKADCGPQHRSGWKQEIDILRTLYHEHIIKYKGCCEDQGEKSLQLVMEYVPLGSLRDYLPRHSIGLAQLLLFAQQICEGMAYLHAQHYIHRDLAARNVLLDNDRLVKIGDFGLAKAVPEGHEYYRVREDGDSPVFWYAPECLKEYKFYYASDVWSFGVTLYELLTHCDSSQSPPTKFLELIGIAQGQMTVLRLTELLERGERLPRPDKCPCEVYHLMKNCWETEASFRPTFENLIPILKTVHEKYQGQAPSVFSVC

`CCc1cc(O)c(F)cc1-c1ccc2c(-c3nc4c([nH]3)CCN(CCN3CCCC3)C4)n[nH]c2c1` [Example 16, 5-Ethyl-2-fluoro-4-(3-(5-(2-(pyrrolidin-1-yl)ethyl)-4,5,6,7-tetrahydro-1H-imidazo[4,5-c]pyridin-2-yl)-1H-indazol-6-yl)phenol]: the Ki fell in the range of 0.1 to 1 nM.

Values taken from patent US10100049B2, “JAK kinase inhibitor compounds for treatment of respiratory disease” (THERAVANCE BIOPHARMA R&D IP, LLC, priority 2015, dated 2018).
